# Assay results taken from patent US20090306149A1, “USE OF BIARYLCARBOXAMIES IN THE TREATMENT OF HEDGEHOG PATHWAY-RELATED DISORDERS” (priority 2006, published 2009).
# Protein sequences, listed by entry. Tags and fused reporters are not part of them. Residues count along the entry.
# UniProt Q99835, 28-787 limits assumed: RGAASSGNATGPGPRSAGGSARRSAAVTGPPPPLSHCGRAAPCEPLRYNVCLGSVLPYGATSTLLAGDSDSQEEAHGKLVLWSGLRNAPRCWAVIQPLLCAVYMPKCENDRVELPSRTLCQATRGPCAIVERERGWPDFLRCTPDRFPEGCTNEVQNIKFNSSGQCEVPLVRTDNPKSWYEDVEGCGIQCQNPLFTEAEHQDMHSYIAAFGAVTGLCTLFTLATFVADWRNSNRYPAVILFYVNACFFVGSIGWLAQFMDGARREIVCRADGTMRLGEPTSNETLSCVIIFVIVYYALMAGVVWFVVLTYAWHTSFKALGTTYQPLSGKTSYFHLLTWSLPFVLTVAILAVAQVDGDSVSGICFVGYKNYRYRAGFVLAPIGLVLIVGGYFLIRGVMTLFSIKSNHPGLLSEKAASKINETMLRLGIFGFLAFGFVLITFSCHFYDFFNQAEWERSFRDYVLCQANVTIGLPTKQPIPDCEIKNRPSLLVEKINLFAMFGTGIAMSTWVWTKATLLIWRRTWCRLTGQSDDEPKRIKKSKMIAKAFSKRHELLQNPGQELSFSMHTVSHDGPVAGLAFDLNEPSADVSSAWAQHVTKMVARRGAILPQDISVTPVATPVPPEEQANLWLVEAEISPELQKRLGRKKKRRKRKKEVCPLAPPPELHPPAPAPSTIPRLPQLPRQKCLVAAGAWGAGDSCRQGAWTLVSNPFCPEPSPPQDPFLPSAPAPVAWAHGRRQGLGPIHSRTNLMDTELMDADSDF
# Where two headings read alike, the source gives them in different places.
# Key:
# [1] = system: gli-luciferase activity (Hh pathway) in TMHh12 cells; experiment: "IC50 shift" gli-luciferase reporter assay in TMHh12 cells with a small molecule Smo agonist
# Procedure: TM3 cells (mouse) transfected with a new proprietary reporter construct (pTA-8xGli-Luc). The pTA-8xGli-Luc reporter produces approx. 4 fold more luciferase activity than classical 8xGli-LUC. A highly responsive stable clone has been selected (TMHh12) with >10-fold signal/noise ratio and <10% CV in 384 well format.
# “IC50 shift” assays in TMHh12 cells. IC50 for antagonism of gli-luciferase activity was tested in the presence of increasing concentrations of a small molecule agonist which binds to Smo with 1 nM affinity and activates the Hh pathway.
# Table 1 lists the IC50 of antagonists determined in the presence of different (1 nM and 25 nM) concentrations of a small agonist of Smoothened.
# [2] = target: Smoothened (Homo sapiens, UniProt Q99835); experiment: Smo binding assay, displacement of a small molecule agonist of Smoothened, filter binding format; details: read-out: Binding assay IC50
compound,measurement,setting,value
Cc1cccc(C(=O)Nc2ccc3c(c2)CC(NCc2ccc4ccccc4c2)C3)c1-c1ccc(C(F)(F)F)cc1 (stereo not drawn),IC50,"[1]; read-out: Gli_luc (1 nM Smo agonist) IC50, 1 nM small molecule Smo agonist",50 nM
same,IC50,"[1]; read-out: Gli_luc (25 nM Smo agonist) IC50, 25 nM small molecule Smo agonist",504 nM
same,IC50,[2],24 nM
